The values below come from patent publication US20250214964A1 (published 2025).

Test [1] concerns promastigote forms of L. donovani (MHOM/ET/67/HU3). The test can be described thus: L. donovani promastigotes, MTT method. It is filed as cell-based. On the technique in general: Formazan colour is commonly taken as a measure of viable cells.
In test [2] the test system is intracellular amastigotes of L. donovani (strain MHOM/ET/67/HU3). The test can be described thus: L. donovani intracellular amastigotes in THP-1-derived macrophages, resazurin method. In kind it is cell-based.

Turning to `N=C(Nc1ccc(CCc2ccc(NC(=N)c3ccccn3)cc2)cc1)c1ccccn1` [Compound 17, N,N″-(ethane-1,2-diylbis(4,1-phenylene))dipicolinimidamide], in test [1], the “activity on promastigote forms of L. donovani, range in words” value is recorded as “micromolar to submicromolar range”. Also, in test [2], the “activity on intracellular amastigote forms of L. donovani, range in words” value is reported as “micromolar to submicromolar range”.
